{"source": "patent US11197863B2", "about": "“Inhibitors of polo-like kinase 4 (PLK4) for treating pediatric embryonal tumors” (ANN AND ROBERT H. LURIE CHILDREN'S HOSPITAL OF CHICAGO, priority 2017, dated 2021)", "target": "T1, AURKC (Homo sapiens, UniProt Q9UQB9)", "T1 sequence (Q9UQB9 1-309)": "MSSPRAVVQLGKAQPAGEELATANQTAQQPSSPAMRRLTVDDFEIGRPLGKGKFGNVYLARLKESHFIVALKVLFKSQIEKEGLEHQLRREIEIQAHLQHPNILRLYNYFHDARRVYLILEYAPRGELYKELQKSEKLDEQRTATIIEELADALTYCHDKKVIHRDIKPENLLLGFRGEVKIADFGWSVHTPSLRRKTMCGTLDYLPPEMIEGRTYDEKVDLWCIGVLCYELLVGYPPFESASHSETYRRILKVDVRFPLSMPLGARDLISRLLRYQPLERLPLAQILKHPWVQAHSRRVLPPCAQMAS", "test": "Kinase activity screening (SelectScreen Kinase Profiling)", "assay_type": "biochemical", "details": "10-point titration", "note": "pIC50: −log10 of the molar value.", "data": [{"smiles": "COc1ccc2c(c1)[C@]1(C[C@H]1c1ccc3c(/C=C/c4ccc(CN5C[C@@H](C)O[C@@H](C)C5)cc4)n[nH]c3c1)C(=O)N2", "note": "[CFI-400945]", "values": [{"measurement": "pIC50", "value": 6.97}]}]}
